This passage reports %max and Activity results from ChEMBL document CHEMBL3797125, “Discovery of GluN2A-Selective NMDA Receptor Positive Allosteric Modulators (PAMs): Tuning Deactivation Kinetics via Structure-Based Design” (J Med Chem, 2016).

Sequences of proteins named here, by UniProt entry; tags and fusion partners are left off. A change or cut given only in a name is not applied to a line headed by its entry.
UniProt O15399, whole entry, looked up: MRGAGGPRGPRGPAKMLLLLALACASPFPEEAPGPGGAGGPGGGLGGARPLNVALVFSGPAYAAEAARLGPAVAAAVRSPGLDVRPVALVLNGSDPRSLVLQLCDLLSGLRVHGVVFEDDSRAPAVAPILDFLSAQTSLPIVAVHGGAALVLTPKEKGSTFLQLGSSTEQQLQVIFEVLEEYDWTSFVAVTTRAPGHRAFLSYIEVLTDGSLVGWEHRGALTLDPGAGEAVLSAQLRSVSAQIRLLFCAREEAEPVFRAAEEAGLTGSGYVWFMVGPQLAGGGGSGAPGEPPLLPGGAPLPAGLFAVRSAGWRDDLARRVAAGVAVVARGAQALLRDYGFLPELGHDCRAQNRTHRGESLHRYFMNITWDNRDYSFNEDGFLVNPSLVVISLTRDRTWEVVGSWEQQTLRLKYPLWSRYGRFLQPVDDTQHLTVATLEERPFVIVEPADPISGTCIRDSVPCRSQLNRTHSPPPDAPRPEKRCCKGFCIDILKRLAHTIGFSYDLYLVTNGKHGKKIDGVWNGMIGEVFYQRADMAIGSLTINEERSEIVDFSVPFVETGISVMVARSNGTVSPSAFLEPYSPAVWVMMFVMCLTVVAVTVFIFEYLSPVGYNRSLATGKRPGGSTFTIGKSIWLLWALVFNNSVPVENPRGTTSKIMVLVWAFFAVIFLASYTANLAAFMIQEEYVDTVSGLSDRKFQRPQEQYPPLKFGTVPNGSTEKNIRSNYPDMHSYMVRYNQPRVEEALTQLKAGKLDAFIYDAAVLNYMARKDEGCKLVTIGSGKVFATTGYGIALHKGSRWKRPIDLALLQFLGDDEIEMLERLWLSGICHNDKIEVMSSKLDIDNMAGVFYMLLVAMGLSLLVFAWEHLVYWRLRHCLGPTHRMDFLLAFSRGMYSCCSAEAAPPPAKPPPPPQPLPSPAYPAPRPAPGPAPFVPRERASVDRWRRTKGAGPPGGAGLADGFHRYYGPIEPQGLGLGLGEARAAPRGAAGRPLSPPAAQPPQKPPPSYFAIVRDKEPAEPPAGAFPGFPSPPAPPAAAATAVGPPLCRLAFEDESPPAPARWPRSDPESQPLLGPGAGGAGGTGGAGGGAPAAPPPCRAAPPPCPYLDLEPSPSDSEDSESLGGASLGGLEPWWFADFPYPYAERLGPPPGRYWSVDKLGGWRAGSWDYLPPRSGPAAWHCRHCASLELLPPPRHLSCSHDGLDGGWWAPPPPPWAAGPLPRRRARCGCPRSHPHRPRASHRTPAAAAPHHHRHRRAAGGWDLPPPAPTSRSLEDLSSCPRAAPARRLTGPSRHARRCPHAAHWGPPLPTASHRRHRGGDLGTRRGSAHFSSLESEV
UniProt Q14957: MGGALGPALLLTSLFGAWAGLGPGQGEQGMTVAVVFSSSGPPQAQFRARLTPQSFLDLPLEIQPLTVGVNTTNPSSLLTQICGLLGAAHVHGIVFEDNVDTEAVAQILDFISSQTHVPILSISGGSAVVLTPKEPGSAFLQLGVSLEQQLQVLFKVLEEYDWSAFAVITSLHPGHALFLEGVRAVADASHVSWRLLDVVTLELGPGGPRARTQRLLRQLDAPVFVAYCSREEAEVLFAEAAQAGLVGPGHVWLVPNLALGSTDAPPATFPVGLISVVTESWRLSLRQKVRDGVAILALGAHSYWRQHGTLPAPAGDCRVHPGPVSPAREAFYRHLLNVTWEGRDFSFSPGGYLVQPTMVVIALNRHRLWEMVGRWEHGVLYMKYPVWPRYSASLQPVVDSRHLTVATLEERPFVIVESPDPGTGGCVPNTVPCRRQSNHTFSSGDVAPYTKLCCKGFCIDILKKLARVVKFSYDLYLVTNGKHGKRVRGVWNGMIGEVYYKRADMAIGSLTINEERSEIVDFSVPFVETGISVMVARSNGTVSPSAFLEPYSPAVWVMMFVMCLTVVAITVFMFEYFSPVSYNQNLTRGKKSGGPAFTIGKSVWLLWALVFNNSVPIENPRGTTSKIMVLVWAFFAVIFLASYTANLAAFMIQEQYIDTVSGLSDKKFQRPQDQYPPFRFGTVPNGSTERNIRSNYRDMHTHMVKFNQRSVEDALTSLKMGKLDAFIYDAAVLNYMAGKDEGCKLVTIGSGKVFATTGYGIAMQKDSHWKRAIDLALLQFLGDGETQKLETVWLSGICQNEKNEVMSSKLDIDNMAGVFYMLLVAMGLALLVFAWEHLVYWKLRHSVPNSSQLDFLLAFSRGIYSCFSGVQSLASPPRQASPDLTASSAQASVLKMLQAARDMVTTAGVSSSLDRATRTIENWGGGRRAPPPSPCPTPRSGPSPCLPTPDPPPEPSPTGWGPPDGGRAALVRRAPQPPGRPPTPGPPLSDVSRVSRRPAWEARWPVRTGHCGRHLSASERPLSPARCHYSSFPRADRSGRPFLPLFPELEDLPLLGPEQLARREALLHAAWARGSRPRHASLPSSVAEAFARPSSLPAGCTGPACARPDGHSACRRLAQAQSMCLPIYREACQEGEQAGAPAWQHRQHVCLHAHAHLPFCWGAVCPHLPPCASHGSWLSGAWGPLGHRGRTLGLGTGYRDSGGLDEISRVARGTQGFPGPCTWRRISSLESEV
UniProt Q12879, whole entry, looked up: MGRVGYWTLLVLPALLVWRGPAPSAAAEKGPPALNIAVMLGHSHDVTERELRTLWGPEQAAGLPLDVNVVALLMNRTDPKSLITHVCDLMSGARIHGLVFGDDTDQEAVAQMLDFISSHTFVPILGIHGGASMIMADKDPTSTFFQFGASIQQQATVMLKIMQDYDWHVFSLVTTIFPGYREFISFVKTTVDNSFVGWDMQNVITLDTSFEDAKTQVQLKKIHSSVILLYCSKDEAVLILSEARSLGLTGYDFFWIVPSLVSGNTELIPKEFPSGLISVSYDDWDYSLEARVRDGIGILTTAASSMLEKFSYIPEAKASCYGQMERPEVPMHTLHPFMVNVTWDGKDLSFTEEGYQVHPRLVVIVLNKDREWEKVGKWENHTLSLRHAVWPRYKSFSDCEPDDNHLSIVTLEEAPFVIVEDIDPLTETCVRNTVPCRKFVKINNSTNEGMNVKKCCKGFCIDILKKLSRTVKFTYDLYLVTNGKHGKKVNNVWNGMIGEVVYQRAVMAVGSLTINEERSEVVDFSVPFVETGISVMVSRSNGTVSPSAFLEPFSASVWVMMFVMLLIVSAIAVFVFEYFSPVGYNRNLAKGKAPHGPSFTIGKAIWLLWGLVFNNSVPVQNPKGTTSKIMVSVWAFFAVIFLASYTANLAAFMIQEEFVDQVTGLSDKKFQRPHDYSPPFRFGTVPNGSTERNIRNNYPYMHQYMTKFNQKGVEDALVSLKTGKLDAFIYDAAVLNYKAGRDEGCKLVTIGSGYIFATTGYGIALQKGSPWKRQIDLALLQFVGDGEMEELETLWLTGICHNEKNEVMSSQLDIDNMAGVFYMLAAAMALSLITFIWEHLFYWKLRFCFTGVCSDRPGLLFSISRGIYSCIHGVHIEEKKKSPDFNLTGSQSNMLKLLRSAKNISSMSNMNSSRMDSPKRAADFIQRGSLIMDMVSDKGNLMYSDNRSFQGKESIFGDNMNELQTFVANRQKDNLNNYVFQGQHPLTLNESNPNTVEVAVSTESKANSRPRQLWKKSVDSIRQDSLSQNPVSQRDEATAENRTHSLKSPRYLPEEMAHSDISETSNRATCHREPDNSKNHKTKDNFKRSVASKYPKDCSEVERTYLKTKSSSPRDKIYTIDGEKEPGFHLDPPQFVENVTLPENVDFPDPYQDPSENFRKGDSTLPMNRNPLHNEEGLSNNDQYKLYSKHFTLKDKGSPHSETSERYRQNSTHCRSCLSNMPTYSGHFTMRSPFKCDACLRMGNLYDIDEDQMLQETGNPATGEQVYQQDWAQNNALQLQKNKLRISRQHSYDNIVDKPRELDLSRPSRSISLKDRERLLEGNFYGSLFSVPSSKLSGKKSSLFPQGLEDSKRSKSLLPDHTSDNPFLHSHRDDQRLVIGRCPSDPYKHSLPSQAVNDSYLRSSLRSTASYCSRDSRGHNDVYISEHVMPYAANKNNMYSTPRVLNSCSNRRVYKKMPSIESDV

Calls of active or inactive are those of the source. The rule behind the calls is not given here.

Format in all cases: cell-based
Assay [1] deals with Ionotropic glutamate receptor NMDA 1/2D (Homo sapiens) (UniProt Q05586+O15399). The assay is described as follows: Positive allosteric modulation of GluN1/GluN2D NMDAR (unknown origin) expressed in Dox-inducible cells at 125 uM by BD calcium indicator dye based-fluorescence analysis in presence of glutamate/glycine.
Assay [2] deals with Ionotropic glutamate receptor NMDA 1/2C (Homo sapiens, UniProt Q05586+Q14957). Kind of assay: Positive allosteric modulation of GluN1/GluN2C NMDAR (unknown origin) expressed in Dox-inducible cells at 125 uM by BD calcium indicator dye based-fluorescence analysis in presence of glutamate/glycine.
Assay [3] has as its target Glutamate NMDA receptor; GRIN1/GRIN2A (Homo sapiens, UniProt Q05586+Q12879). The assay is described as follows: Positive allosteric modulation of GluN1/GluN2A NMDAR (unknown origin) expressed in CHO cells assessed as slowing of deactivation kinetics at 30 to 1000 nM by whole-cell voltage clamp electrophysiological analysis.

With `N#C[C@@H]1C[C@H]1c1c(C(F)(F)F)sc2nc(Cn3nc(C(F)(F)F)cc3Cl)cc(=O)n12`, the %max in assay [1] is 160%; in assay [2] it was 233%. The result in assay [3] was Active.
